In the test the target is T1, vasoactive intestinal peptide receptor (VIPR1) (Homo sapiens, UniProt P32241).
T1 construct: It was confirmed that VIPR1 is expressed on the membrane of PASMCs; endogenous in cells; host or cells: Ctrl-PASMCs (primary human pulmonary artery smooth muscle cells)
Briefly: cAMP accumulation in response to receptor agonist (cAMP radioimmunoassay) in Ctrl-PASMCs. In kind it is cell-based. A general note: Cyclic AMP is a second messenger, typically raised through Gs and lowered through Gi signalling.

The chains behind the UniProt entries cited, without tags or fusion partners. Residues count along the entry.
UniProt P32241, 31-457: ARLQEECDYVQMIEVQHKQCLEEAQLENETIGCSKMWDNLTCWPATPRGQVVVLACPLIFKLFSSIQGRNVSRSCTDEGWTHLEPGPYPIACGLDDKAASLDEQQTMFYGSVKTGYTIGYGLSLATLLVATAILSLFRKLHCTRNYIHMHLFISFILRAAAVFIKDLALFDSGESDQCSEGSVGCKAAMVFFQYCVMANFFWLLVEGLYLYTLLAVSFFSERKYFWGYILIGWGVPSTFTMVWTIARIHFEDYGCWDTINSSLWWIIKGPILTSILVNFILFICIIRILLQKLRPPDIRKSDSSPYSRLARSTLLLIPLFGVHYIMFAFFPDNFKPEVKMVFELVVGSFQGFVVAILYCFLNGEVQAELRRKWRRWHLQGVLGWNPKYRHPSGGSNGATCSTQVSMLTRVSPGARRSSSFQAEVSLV

Take Vasoactive Intestinal Peptide [VIP]: the “cAMP levels, concentration dependence” value (FIG. 4C) was “dose-dependently increases cAMP”. For the setting “agonist 1 μM, 10 min treatment”, this substance gave a cAMP accumulation of 0.2 fmol cAMP/cell/10 min.

The values are drawn from patent publication US20160169918A1, “Methods of Diagnosis and Treatment for Pulmonary Arterial Hypertension” (THE REGENTS OF THE UNIVERSITY OF CALIFORNIA, priority 2013, published 2016).
